assay: soluble on expression in E. coli; label from the status in PepcDB or PDB records

Soluble on expression in E. coli, soluble:
MAEDADMRNELEEMQRRADQLADESLESTRRMLQLVEESKDAGIRTLVMLDEQGEQLDRVEEGMNHINQDMKEAEKNLKDLGK
MRGSHHHHHHTDPQGDAAQKTDTSHHDQDHPTFNKITPNLAEFAFSLYRQLAHQSNSTNIFFSPVSIATAFAMLSLGTKADTHDEILEGLNFNLTEIPEAQIHEGFQELLRTLNQPDSQLQLTTGNFLFLSEGLKLVDKFLEDVKKLYHSEAFTVNFGDTEEAKKQINDYVEKGTQGKIVDLVKELDRDTVFALVNYIFFKGKWERPFEVKDTEEEDFHVDQVTTVKVPMMKRLGMFNIQHCKKLSSWVLLMKYLGNATAIFFLPDEGKLQHLENELTHDIITKFLENEDRRSASLHLPKLSITGTYDLKSVLGQLGITKVFSNGADLSGVTEEAPLKLSKAVHKAVLTIDEKGTEAAGAMFLEAIPMSIPPEVKFNKPFVFLMIEQNTKSPLFMGKVVNPTQK
MTMESGAENQQSGDAAVTEAENQQMTVQAQPQIATLAQVSMPAAHATSSAPTVTLVQLPNGQTVQVHGVIQAAQPSVIQSPQVQTVQSSCKDLKRLFSGTQISTIAESEDSQESVDSVTDSQKRREILSRRPSYRKILNDLSSDAPGVPRIEEEKSEEETSAPAITTVTVPTPIYQTSSGQYIAITQGGAIQLANNGTDGVQGLQTLTMTNAAATQPGTTILQYAQTTDGQQILVPSNQVVVQAASGDVQTYQIRTAPTSTIAPGVVMASSPALPTQPAEEAARKREVRLMKNREAARECRRKKKEYVKCLENRVAVLENQNKTLIEELKALKDLYCHKSDLEHHHHHH

From the DeepSol protein solubility set
